From patent US20050009748A1, “Compositions for delivering peptide YY and PYY agonists” (Emisphere Technologies, Inc., priority 2003, published 2005)
“And” between values parts separate entries of the source, which are not always exact repeats. Equal values may be shown once. Read-outs that look alike come from different tables or passages of the source.

Experiments:
[1] = Liquid oral delivery of PYY[3-36] in rats (oral gavage, serum PYY[3-36] radioimmunoassay); details: for Mean Peak Serum [PYY(3-36)] (pg/ml) ± SD: oral gavage solution, rats, 1 ml/kg
Protocol: SNAC monosodium salt, solid was dissolved in water. The pH of this solution was close to pH 7.5, so no pH adjustments were done. […] The final pH of these solutions was 7.5.
The pH was then lowered to 7.7 by adding HCl (5N). […] The final pH of these solutions varied between 7.5 and 7.6.
Each delivery agent compound (as the free acid or monosodium salts) was dissolved in water. The pH was adjusted to approximately 7.5 by adding HCl (5N) and NaOH (5N) as needed. […] The final pH of these solutions was approximately 7.5.
The typical dosing and sampling protocols were as follows. Male Sprague-Dawley rats weighing between 240-320 g were fasted up to a maximum 24 hours before the experiments and administered ketamine (44 mg/kg) and thorazine (1.5 mg/kg) by intramuscular injection before the test article administration. Afterwards, the anesthetized animals were administered the test article by oral gavage. A dosing group of five animals was administered one of the dosing solutions. For oral gavage (PO), an 11 cm Rusch 8 French catheter was adapted to a 1 ml syringe with a pipette tip. The syringe was filled with dosing solution by drawing the solution through the catheter, which was then wiped dry. The catheter was placed down the esophagus leaving 1 cm of tubing past the incisors. The dosing solution was administered by pressing the syringe plunger.
(§1) Blood samples were collected serially from the tail artery, or by cardiac puncture, typically at time=0, 15, 30, 45, 60 and 90 minutes. […] Results from the animals in each group were averaged for each time point.

[2] = PYY[3-36] solid oral delivery in Cynomolgus monkeys (serum PYY radioimmunoassay); assay type: in vivo
Protocol: Capsules were prepared as follows. […] Pre-weighed size 2 capsules were packed with the blend using a clean metal spatula. The final capsules were reweighed and determined to contain >98% of the transferred blend.
Tablets were prepared as follows.
Each solid dosage form was delivered directly into the stomach using a gavage tube. The capsule or tablet was ejected by air flush.

[3] = Mini-tablets of PYY[3-36] and SNAD to feed restricted rats (serum PYY[3-36] radioimmunoassay); assay type: in vivo, Male Sprague Dawley rats; details: fasted rats, PYY[3-36] or SNAD administered alone
[4] = Solid oral delivery of PYY[3-36] in feed restricted rats (serum PYY radioimmunoassay); assay type: in vivo, Male Sprague Dawley rats; details: 1 tablet per animal
Protocol: (§2) An oral dosing tube was used.
(§3) Blood samples were collected serially from the tail artery, by cardiac puncture, or as in this case by retro-orbitally, typically at time=0, 15, 30, 60 and 90 minutes.

[5] = IP, rats, 0.5 ml/kg, no delivery agent
Protocol: The typical dosing and sampling protocols were as follows. Male Sprague-Dawley rats weighing between 240-320 g were fasted up to a maximum 24 hours before the experiments and administered ketamine (44 mg/kg) and thorazine (1.5 mg/kg) by intramuscular injection before the test article administration. […] A dosing group of five animals was administered one of the dosing solutions.
as §1

[6] = Dosage forms of disodium salt of SNAD and PYY[3-36] and intraperitoneal dosing of PYY[3-36] in rats (serum PYY radioimmunoassay); assay type: in vivo, Male Sprague Dawley rats
Protocol: Liquid dosage forms were prepared as follows. […] A liquid solution of delivery agent was prepared by dissolving the disodium salt of SNAD in water. The pH of the resulting disodium SNAD solution was about 10. […] Liquid dosage forms having between about 100 and 200 mg/kg disodium SNAD and between about 0.3 and 1 mg/kg PYY[3-36] were prepared according to this procedure. The final pH of the liquid dosage forms was between about 9 and 10.
Solid dosage forms were prepared as follows. About 0.08 mg/tablet (about 0.3 mg/kg) of PYY (about 1 μl) was added and blended with either about 13.5 or about 27 mg/tablet (about 50 or 100 mg/kg) Delivery Agent.
as §2, §3

[7] = Solid oral delivery of PYY[3-36] in non-feed restricted rats; assay type: in vivo; details: 1 tablet per animal
Description: Rats were subjected to solid oral dosage forms consisting of PYY [3-36] and a carrier agent as described above in Example 3a, except no food restriction was imposed upon the rats prior to administration of the solid dosage forms.

[8] = Delivery Agent 100 mg/kg, PYY[3-36] 0.5 mg/kg

N-(10-[2-hydroxybenzoyl]-amino)decanoic acid [Delivery Agent 2]
Mean Peak Serum [PYY(3-36)] (pg/ml) ± SD ([1]; Delivery Agent 100 mg/kg, PYY[3-36] 0.1 mg/kg): 44.63 ± 53.53 pg/mL
Mean Peak Serum [PYY(3-36)] (pg/ml) ± SD [1, 8]: 273.69 ± 457.5 pg/mL
Mean Peak Serum [PYY(3-36)] (pg/ml) ± SD ([1]; Delivery Agent 200 mg/kg, PYY[3-36] 0.1 mg/kg): 134.37 ± 236.708 pg/mL
Mean Peak Serum [PYY(3-36)] (pg/ml) ± SD ([1]; Delivery Agent 200 mg/kg, PYY[3-36] 0.5 mg/kg): 430.29 ± 364.6 pg/mL
Mean serum peak of PYY (pg/ml) ± SD ([2]; 1 capsule per animal, Compound 50 mg, PYY(3-36) 1 mg): 419.68 ± 320.44 pg/mL
Mean serum peak of PYY (pg/ml) ± SD ([2]; 1 capsule per animal, Compound 100 mg, PYY(3-36) 1 mg): 432.02 ± 309.47 pg/mL
Mean serum peak of PYY (pg/ml) ± SD ([2]; 1 tablet per animal, Compound 50 mg/tablet, PYY(3-36) 1 mg/tablet): 925.86 ± 794.03 pg/mL
changes in serum PYY[3-36] when administered alone [3]: No changes in serum PYY[3-36] were detected
Mean serum peak of PYY (pg/ml) ± SD ([4]; Delivery Agent 50 mg/kg, PYY[3-36] 0.3 mg/kg, listed as 2): 536.3 ± 424.7 pg/mL
Mean serum peak of PYY (pg/ml) ± SD ([4]; Delivery Agent 100 mg/kg, PYY[3-36] 0.3 mg/kg, listed as 2): 512.4 ± 484.2 pg/mL

PYY[3-36]
PYY[3-36] detected in blood ([1]; rats dosed orally with PYY[3-36] alone): No significant PYY[3-36] was detected
Mean Peak Serum [PYY] (pg/ml) ± SD ([5]; PYY[3-36] 0.005 mg/kg): 435.19 ± 56.07 pg/mL
Mean Peak Serum [PYY] (pg/ml) ± SD ([5]; PYY[3-36] 0.05 mg/kg): 521.02 ± 111.54 pg/mL
Mean Peak Serum [PYY] (pg/ml) ± SD ([5]; PYY[3-36] 0.1 mg/kg): 464.48 ± 77.48 pg/mL
Mean serum peak of PYY (pg/ml) ± SD ([6]; intraperitoneal injection, Disodium SNAD 0, PYY(3-36) 0.05 (mg/tablet)): 3671 ± 244.7 pg/mL and 6292.8 ± 1365.1 pg/mL
changes in serum PYY[3-36] when administered alone [3]: No changes in serum PYY[3-36] were detected

N-(10-[2-hydroxybenzoyl]-amino)decanoic acid [Delivery Agent 16]
Mean serum peak of PYY (pg/ml) ± SD ([6]; oral liquid dose, Disodium SNAD 100 (mg/tablet), PYY(3-36) 0.3 (mg/tablet)): 1008.2 ± 145.16 pg/mL
Mean serum peak of PYY (pg/ml) ± SD ([6]; oral liquid dose, Disodium SNAD 150 (mg/tablet), PYY(3-36) 0.5 (mg/tablet)): 2215.6 ± 1543.01 pg/mL
Mean serum peak of PYY (pg/ml) ± SD ([6]; oral liquid dose, Disodium SNAD 150 (mg/tablet), PYY(3-36) 1 (mg/tablet)): 4697.8 ± 3009.48 pg/mL and 2432.4 ± 1702.55 pg/mL
Mean serum peak of PYY (pg/ml) ± SD ([6]; oral liquid dose, Disodium SNAD 200 (mg/tablet), PYY(3-36) 0 (delivery agent alone)): 0 pg/mL
Mean serum peak of PYY (pg/ml) ± SD ([6]; oral liquid dose, Disodium SNAD 200 (mg/tablet), PYY(3-36) 0.3 (mg/tablet)): 805.67 ± 583.78 pg/mL
Mean serum peak of PYY (pg/ml) ± SD ([6]; oral solid dose, 1 tablet per animal, Disodium SNAD 100 (mg/tablet), PYY(3-36) 0.5 (mg/tablet)): 1518.36 ± 464.98 pg/mL and 3685.8 ± 880.43 pg/mL
Mean serum peak of PYY (pg/ml) ± SD ([7]; Delivery Agent 50 mg/kg, PYY[3-36] 0.3 mg/kg): 1101 ± 1197 pg/mL
Mean serum peak of PYY (pg/ml) ± SD ([7]; Delivery Agent 100 mg/kg, PYY[3-36] 0.3 mg/kg): 1011.5 ± 1287 pg/mL
Mean serum peak of PYY (pg/ml) ± SD [7, 8]: 1735.6 ± 1108 pg/mL
Mean serum peak of PYY (pg/ml) ± SD ([4]; Delivery Agent 25 mg/kg, PYY[3-36] 0.1 mg/kg): 274.1 ± 118.6 pg/mL
Mean serum peak of PYY (pg/ml) ± SD ([4]; Delivery Agent 25 mg/kg, PYY[3-36] 0.3 mg/kg): 953.8 ± 660.3 pg/mL
Mean serum peak of PYY (pg/ml) ± SD ([4]; Delivery Agent 25 mg/kg, PYY[3-36] 0.5 mg/kg): 494.6 ± 318.2 pg/mL
Mean serum peak of PYY (pg/ml) ± SD ([4]; Delivery Agent 50 mg/kg, PYY[3-36] 0.1 mg/kg): 249.3 ± 144.0 pg/mL
Mean serum peak of PYY (pg/ml) ± SD ([4]; Delivery Agent 50 mg/kg, PYY[3-36] 0.3 mg/kg, listed as 16): 617.4 ± 272.1 pg/mL and 988.7 ± 288.2 pg/mL and 847.3 ± 152 pg/mL and 421.08 ± 389.2 pg/mL
Mean serum peak of PYY (pg/ml) ± SD ([4]; Delivery Agent 50 mg/kg, PYY[3-36] 0.5 mg/kg): 715 ± 208.0 pg/mL
Mean serum peak of PYY (pg/ml) ± SD ([4]; Delivery Agent 50 mg/kg, PYY[3-36] 1 mg/kg): 739.6 ± 409.6 pg/mL
Mean serum peak of PYY (pg/ml) ± SD ([4]; Delivery Agent 75 mg/kg, PYY[3-36] 0.3 mg/kg): 754.7 ± 539.8 pg/mL
Mean serum peak of PYY (pg/ml) ± SD ([4]; Delivery Agent 100 mg/kg, PYY[3-36] 0.3 mg/kg, listed as 16): 1294.2 ± 351.4 pg/mL and 1560 ± 883.4 pg/mL and 980.7 ± 49.7 pg/mL and 939.88 ± 166.61 pg/mL
Mean serum peak of PYY (pg/ml) ± SD [4, 8]: 852.2 ± 1119 pg/mL
